# This is a selection; strong and weak results do not stand in their true shares. Calls of active or inactive are those of the source. Rule as the data show it: active = inhibition above about 50%; inactive = the rest.
# Target: Dual specificity tyrosine-phosphorylation-regulated kinase 1A (Rattus norvegicus) (UniProt Q63470)
# Experiment: inhibition of Dyrk1A kinase activity – biochemical, single point, plate reader, primary screen (AID 504441);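 also: plate controls were vehicle with enzyme for no effect and no enzyme for full effect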
# Settings: ADP-Glo luminescence, NFATc1 peptide, at 12.5 µM, active compounds read high
row,Compound,inhibition
1,CCC(=O)N(c1ccccc1)C1(COC)CCN(CCn2nnn(CC)c2=O)CC1,inactive: -13.1%
2,CCC(=O)N(c1ccccc1)C1(COC)CCN(CCc2cccs2)CC1,inactive: -10.8%

# From PubChem BioAssay AID504441 (Broad Institute, 2011)
